From patent publication US20050032866A1, “The use of 5ht4 receptor antagonists in the prophylaxis or treatment of certain cardiovascular conditions” (priority 2000, published 2005) come the findings set out here.

Chains of the proteins cited; added tags and fusions are not shown. Lines headed by an entry give the natural chain unless they say otherwise; changes in a name come on top.
UniProt Q62758: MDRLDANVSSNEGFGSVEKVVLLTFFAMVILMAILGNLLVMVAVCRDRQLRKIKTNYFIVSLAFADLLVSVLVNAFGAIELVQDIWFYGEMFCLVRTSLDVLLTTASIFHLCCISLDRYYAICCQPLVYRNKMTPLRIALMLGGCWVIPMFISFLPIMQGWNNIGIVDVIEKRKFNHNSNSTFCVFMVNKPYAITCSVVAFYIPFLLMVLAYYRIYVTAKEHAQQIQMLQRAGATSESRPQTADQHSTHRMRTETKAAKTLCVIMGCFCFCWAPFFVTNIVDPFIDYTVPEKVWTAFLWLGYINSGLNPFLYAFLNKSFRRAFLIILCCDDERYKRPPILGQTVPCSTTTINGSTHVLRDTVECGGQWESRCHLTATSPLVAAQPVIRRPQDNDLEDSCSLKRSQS

This assay addresses T1, 5-HT4 receptor (Rattus norvegicus, UniProt Q62758).
T1 construct: The inner smooth muscle tube of the muscularis mucosae is isolated and mounted for isometric tension recording; from tissue; host or cells: rat oesophageal tunica muscularis mucosae
Put plainly: rat oesophageal tunica muscularis mucosae, relaxation to 5-HT. The assay is classed as cell-based.

On to `NCCc1c[nH]c2ccc(O)cc12` [5-HT, reference compound], for which the EC50 is 7.94 nM.
